The list shows a part of the results, in another mix than the full data. Records with an inconclusive call do not appear. The source made the active and inactive calls.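 Rule for the calls: active = cell viability at or below a set limit in both duplicate runs, the limit being the all-compound median minus 4 SD (cut at about 23% in these data, passing the limit was not always enough); inconclusive = no clear call, values can overlap the other calls; inactive = the rest.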
Test: viability of HCT116 without oncogenic beta-catenin – human colon tumor cells, pilot screen (AID 823);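 note: 0% = wells killed by 20 µM Hyamine and 100% = untreated DMSO cell wells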
Conditions: HCT116 beta-catenin knockout viability, CellTiter-Glo, 60 h; at 10 µM; stronger effect = lower value

**Q.** Which viability does the source give for `CP(=O)(Nc1ccc2c(c1)OCCO2)Oc1ccccc1` (stereo not given) here?
**A.** inactive: 98%

**Q.** Which viability does the source give for `CP(=O)(Oc1ccccc1)N1CCOC1=O` (stereo not given) here?
**A.** inactive: 102%

**Q.** With `CP(=O)(NC(=O)Nc1ccccc1)Oc1ccccc1` (stereo not given) as the compound, how does the viability read?
**A.** inactive: 94.7%

**Q.** Which viability does the source give for `Cc1ccc(NP(C)(=O)Oc2ccccc2)c(C)c1` (stereo not given) here?
**A.** inactive: 101%

**Q.** For `Cc1ccc(C)c(NP(C)(=O)Oc2ccccc2)c1` (stereo not given), which viability is on record?
**A.** inactive: 98.2%
